110 molecules from PubChem BioAssay AID720509 (The Scripps Research Institute Molecular Screening Center, 2013) can be followed below.

Protein sequences, listed by entry. Tags and fused reporters are not part of them.
UniProt P02675, whole entry, looked up: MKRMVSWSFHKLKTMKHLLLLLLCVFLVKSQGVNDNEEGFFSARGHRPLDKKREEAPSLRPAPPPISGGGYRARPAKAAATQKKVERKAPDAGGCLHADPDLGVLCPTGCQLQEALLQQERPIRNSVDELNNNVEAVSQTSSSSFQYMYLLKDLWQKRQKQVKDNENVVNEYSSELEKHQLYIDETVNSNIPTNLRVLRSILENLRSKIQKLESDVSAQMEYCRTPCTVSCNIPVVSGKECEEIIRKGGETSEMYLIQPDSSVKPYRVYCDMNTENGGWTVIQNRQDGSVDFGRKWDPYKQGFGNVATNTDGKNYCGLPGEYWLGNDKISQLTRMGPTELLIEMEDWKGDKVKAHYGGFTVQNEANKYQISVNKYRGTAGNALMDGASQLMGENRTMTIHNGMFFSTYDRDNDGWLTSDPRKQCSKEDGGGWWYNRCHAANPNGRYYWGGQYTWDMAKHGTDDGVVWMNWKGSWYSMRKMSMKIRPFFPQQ

The entries are a selection whose mix differs from that of the whole data set. Calls of active or inactive are those of the source.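 How the source made its calls: active means inhibition above a per-campaign cutoff: mean of compounds within control limits plus 3 SD (cut at about 15% in these data); inactive means the rest.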

This experiment addresses Fibrinogen beta chain (Homo sapiens) (UniProt P02675). In words: small molecules displacing Tn6 from DD(E) complex – biochemical, fluorescence polarization, human fibrin, Tn6 probe, primary screen (AID 720509).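 Further: 0% = median of all compound wells on the plate and 100% = blocking peptide control.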 Conditions: Fibrin DD(E) TRITC-Tn6 fluorescence polarization displacement; at 8.3 µM; hits give high values.
Take `CCOc1ncccc1C(=O)NCC1(N2CCOCC2)CCCCC1`: the inhibition (in general, the drop in the measured response relative to a control, in per cent) is inactive: 2.3%.

As for `CN1CCC(Nc2ccc(F)c(Cl)c2)CC1`, the inhibition is inactive: -7.52%.

Regarding `CC(C)(C)OC(=O)N1CCC(Nc2ccccc2)CC1`, the inhibition is inactive: -0.95%.

For `O=C(O)C1(Nc2ccccc2)CCN(Cc2ccccc2)CC1`, the inhibition is inactive: 3.61%.

For the molecule `NN(c1ccccc1)C1CCN(CCc2ccccc2)CC1`, the inhibition was inactive: 2%.

With `CCCOc1ccc(C(=O)NCC2(N(C)C)CCCCC2)cc1`, the inhibition is inactive: 1.29%.

For `O=c1[nH]c2ccccc2n1C1CCN(C(c2cc3ccccc3o2)c2nnnn2C2CCCC2)CC1` (stereo not given), the inhibition was inactive: 6.23%.

As to `COc1cccc(C(c2nnnn2C2CCCC2)N2CCC(n3c(=O)[nH]c4ccccc43)CC2)c1OC` (stereo not given), the inhibition was inactive: -6.18%.

As to `COc1cc(OC)cc(C(=O)NCC2(N3CCOCC3)CCCCC2)c1`, the inhibition was inactive: 8.13%.

As to `COc1cccc(C(=O)N(c2cc(C)cc(C)c2)C2CCN(C(=O)OC(C)(C)C)CC2)c1`, the inhibition is inactive: -2.01%.

Turning to `CCC(CO)(C(=O)OC1CN2CCC1CC2)c1ccccc1` (stereo not given), the inhibition was inactive: -0.6%.

`CN1CCC(Nc2ccc(Cl)cc2)CC1`: the inhibition is inactive: -7.09%.

Take `CC(=O)N(c1ccccc1)C1CCNCC1`: the inhibition is inactive: 0.19%.

For `COc1cccc(C(c2nnnn2C2CCCCC2)N2CCC(n3c(=O)[nH]c4ccccc43)CC2)c1OC` (stereo not given), the inhibition is inactive: 4.39%.

With `CCC(c1nnnn1C1CCCCC1)N1CCC(n2c(=O)[nH]c3ccccc32)CC1` (stereo not given), the inhibition is inactive: 2.96%.

Turning to `O=c1[nH]c2ccccc2n1C1CCN(C(c2ccnc3ccccc23)c2nnnn2C2CCCCC2)CC1` (stereo not given), the inhibition was inactive: 0.17%.

Turning to `COc1cc(OC)cc(C(=O)NCC2(N3CCCCC3)CCCCC2)c1`, the inhibition is inactive: -9.36%.

On to `Cc1ccc(C(=O)NCC2(N3CCCCC3)CCCCC2)o1`, for which the inhibition is inactive: 1.82%.

Take `Fc1ccccc1NC1CCN(Cc2ccccc2)CC1`: the inhibition was inactive: 3.13%.

In the case of `Cc1ccc(NC2(C#N)CCN(Cc3ccccc3)CC2)cc1`, the inhibition was inactive: -6.88%.

On to `Cc1ccccc1NC1(C#N)CCN(Cc2ccccc2)CC1`, for which the inhibition was inactive: -0.9%.

As to `CC(C)(C)n1nnnc1C(c1ccnc2ccccc12)N1CCC(n2c(=O)[nH]c3ccccc32)CC1` (stereo not given), the inhibition is inactive: -7.97%.

As for `CCN1CCC(Nc2cccc(F)c2)CC1`, the inhibition was inactive: -2.8%.

Regarding `COc1ccc(C(c2nnnn2C2CCCCC2)N2CCC(n3c(=O)[nH]c4ccccc43)CC2)cc1` (stereo not given), the inhibition is inactive: 11.5%.

Turning to `O=C(NCC1(N2CCCCC2)CCCCC1)c1ccco1`, the inhibition was inactive: -5.63%.

For `Cn1c(=O)[nH]cc(N(CCCl)CCCl)c1=O`, the inhibition is inactive: 2.9%.

As to `CN(C)c1ccc(C(=O)NCC2(N3CCCCC3)CCCCC2)cc1`, the inhibition was inactive: 3.13%.

For `N#Cc1ccc(C(=O)NCC2(N3CCCCC3)CCCCC2)cc1`, the inhibition was inactive: -0.91%.

For `CC(C)(C)OC(=O)N1CCC(N(C(=O)c2ccccc2)c2ccc(Cl)cc2)CC1`, the inhibition is inactive: -10.6%.

In the case of `CN(C)C1(CNC(=O)c2cccc(C#N)c2)CCCCC1`, the inhibition was inactive: 5.22%.

For `c1ccc(CN2CCC(Nc3ccccc3)CC2)cc1`, the inhibition is inactive: -6.42%.

For the molecule `C/C(N)=N\P(=O)(Oc1ccccc1)Oc1ccccc1`, the inhibition was inactive: 0.77%.

Regarding `Cc1cc(N(CCCl)CCCl)ccc1C=O`, the inhibition was inactive: 2.19%.

Turning to `CCCN1CCC(Nc2cc(OC)cc(OC)c2)CC1`, the inhibition is inactive: -6.97%.

As for `O=c1[nH]c2ccccc2n1C1CCN(C(c2ccccc2)c2nnnn2C2CCCC2)CC1` (stereo not given), the inhibition was inactive: 2.72%.

On to `CC(C)(C)n1nnnc1C(c1cccc2ccccc12)N1CCC(n2c(=O)[nH]c3ccccc32)CC1` (stereo not given), for which the inhibition was inactive: -9.62%.

As for `CCCCn1nnnc1C(c1ccccc1)N1CCC(n2c(=O)[nH]c3ccccc32)CC1` (stereo not given), the inhibition was inactive: -1.06%.

For `COc1cc(C(=O)NCC2(N3CCOCC3)CCCCC2)cc(OC)c1C`, the inhibition is inactive: -4.49%.

Regarding `O=C(NCC1(N2CCOCC2)CCCCC1)c1cc(Br)ccc1Cl`, the inhibition is inactive: 7.66%.

Turning to `O=c1[nH]c2ccccc2n1C1CCN(C(c2cccs2)c2nnnn2C2CCCCC2)CC1` (stereo not given), the inhibition was inactive: -9.08%.

For the molecule `NC(=O)C1(Nc2ccccc2)CCN(Cc2ccccc2)CC1`, the inhibition was inactive: 2.96%.

In the case of `COc1ccc(C(=O)NCC2(N3CCOCC3)CCCCC2)cc1OC`, the inhibition is inactive: 5.32%.

On to `O=c1[nH]c2ccccc2n1C1CCN(C(c2ccnc3ccccc23)c2nnnn2C2CCCC2)CC1` (stereo not given), for which the inhibition is inactive: -9.21%.

Take `COc1cccc(C(c2nnnn2C(C)(C)C)N2CCC(n3c(=O)[nH]c4ccccc43)CC2)c1OC` (stereo not given): the inhibition was inactive: -6.25%.

For `CCOC(=O)N1CCC(Nc2ccc(C)cc2)CC1`, the inhibition is inactive: -4%.

On to `N/C(=N\O)c1c(N)no[n+]1[O-]`, for which the inhibition is inactive: 13.2%.

`O=C(OC1CN2CCC1CC2)C1c2ccccc2C=Cc2ccccc21` (stereo not given): the inhibition was inactive: -2.41%.

Take `O=c1[nH]c2ccccc2n1C1CCN(C(c2cccs2)c2nnnn2C2CCCC2)CC1` (stereo not given): the inhibition was inactive: -0.89%.

As for `CCCCn1nnnc1C(c1cccc(OC)c1OC)N1CCC(n2c(=O)[nH]c3ccccc32)CC1` (stereo not given), the inhibition is inactive: -3.89%.

`CC(C)c1ccc(NC2CCN(C(=O)OC(C)(C)C)CC2)cc1`: the inhibition is inactive: 6.94%.

With `COC(=O)C1(Nc2ccccc2)CCN(Cc2ccccc2)CC1`, the inhibition is inactive: 0.49%.

With `COc1ccc(CN(CCCl)CCCl)cc1Cl`, the inhibition was inactive: -0.22%.

As for `CN(C)c1cccc(C(=O)NCC2(N3CCCCC3)CCCCC2)c1`, the inhibition was inactive: 1.11%.

Take `COc1cc(OC)c(C(=O)NCC2(N(C)C)CCCCC2)cc1OC`: the inhibition was inactive: 4.79%.

On to `CCC(c1nnnn1C(C)(C)C)N1CCC(n2c(=O)[nH]c3ccccc32)CC1` (stereo not given), for which the inhibition is inactive: 3.08%.

Turning to `O=C(NCC1(N2CCOCC2)CCCCC1)c1cc(F)c(F)cc1Cl`, the inhibition was inactive: 1.82%.

As to `CCCCn1nnnc1C(c1ccnc2ccccc12)N1CCC(n2c(=O)[nH]c3ccccc32)CC1` (stereo not given), the inhibition is inactive: -6.34%.

For `O=C(NCC1(N2CCCCC2)CCCCC1)c1cncc(Br)c1`, the inhibition is inactive: 9.4%.

`CN1CCC(Nc2cccc(F)c2)CC1`: the inhibition was inactive: -2.67%.

Take `COc1ccc(C(c2nnnn2C2CCCC2)N2CCC(n3c(=O)[nH]c4ccccc43)CC2)cc1` (stereo not given): the inhibition is inactive: -3.42%.

`Cc1ccc(C(=O)NCC2(N(C)C)CCCCC2)o1`: the inhibition is inactive: -3.03%.

Take `CCCOc1ccc(C(=O)NCC2(N(C)C)CCCCC2)cc1OC`: the inhibition was inactive: 0.51%.

In the case of `CC(C)(C)n1nnnc1C(c1ccccc1OC(F)(F)F)N1CCC(n2c(=O)[nH]c3ccccc32)CC1` (stereo not given), the inhibition was inactive: 0.79%.

Regarding `O=C(NCC1(N2CCCCC2)CCCCC1)c1ccc(OC(F)F)cc1`, the inhibition was inactive: -7.9%.

Take `CCN1CCC(Nc2ccc(Cl)cc2)CC1`: the inhibition was inactive: -4.18%.

Consider `N#CC1(Nc2ccccc2)CCN(CCc2ccccc2)CC1`, for which the inhibition was inactive: 2.9%.

For the molecule `O=c1[nH]c2ccccc2n1C1CCN(C(c2ccccc2OC(F)(F)F)c2nnnn2C2CCCC2)CC1` (stereo not given), the inhibition was inactive: -8.25%.

Turning to `CSc1ccc(C(=O)NCC2(N3CCOCC3)CCCCC2)cc1`, the inhibition was inactive: 0.54%.

For the molecule `O=C(NCC1(N2CCCCC2)CCCCC1)c1cccc([N+](=O)[O-])c1`, the inhibition is inactive: -10.9%.

Consider `O=C(NCC1(N2CCCCC2)CCCCC1)c1cccc(C(F)(F)F)c1`, for which the inhibition is inactive: 6.94%.

Turning to `COc1cc(C(=O)NCC2(N3CCCCC3)CCCCC2)ccc1OC(F)F`, the inhibition was inactive: 7.47%.

With `O=C(NCC1(N2CCOCC2)CCCCC1)c1cc(=O)[nH]c2ccccc12`, the inhibition is inactive: 1.74%.

Take `CCCCn1nnnc1C(c1cccc2ccccc12)N1CCC(n2c(=O)[nH]c3ccccc32)CC1` (stereo not given): the inhibition is inactive: -3.19%.

In the case of `CN1CCN(CCOC(=O)C(O)(c2ccccc2)c2ccccc2)CC1`, the inhibition was inactive: -1.49%.

For the molecule `CC(C)c1ccc(C(=O)NCC2(N3CCOCC3)CCCCC2)cc1`, the inhibition is inactive: 7.75%.

Regarding `COc1ccc(NC2CCN(C(=O)OC(C)(C)C)CC2)cc1`, the inhibition was inactive: -4.31%.

Turning to `CC(C)(C)n1nnnc1C(c1ccccc1)N1CCC(n2c(=O)[nH]c3ccccc32)CC1` (stereo not given), the inhibition is inactive: 2.47%.

As for `O=C1CCN(Cc2ccccc2)CC1`, the inhibition was inactive: -2.84%.

In the case of `CCOc1ccc(C)cc1CN(CCCl)CCCl`, the inhibition was inactive: 2.29%.

In the case of `O=C(NCC1(N2CCCCC2)CCCCC1)c1ccc(F)cc1`, the inhibition is inactive: 1.35%.

On to `O=P1(N(CCCl)CCCl)SCCCS1`, for which the inhibition is inactive: -3.4%.

As for `CCCCn1nnnc1C(c1cc2ccccc2o1)N1CCC(n2c(=O)[nH]c3ccccc32)CC1` (stereo not given), the inhibition is inactive: 5.15%.

`CCCCOc1ccc(C(=O)NCC2(N3CCOCC3)CCCCC2)cc1`: the inhibition is inactive: 1.45%.

`COc1ccc(NC2CCN(CCc3ccccc3)CC2)c(OC)c1`: the inhibition was inactive: 5.49%.

On to `CCOC(=O)N1CCC(Nc2ccc(F)cc2)CC1`, for which the inhibition is inactive: 4.97%.

For `O=c1[nH]c2ccccc2n1C1CCN(C(c2ccccc2)c2nnnn2C2CCCCC2)CC1` (stereo not given), the inhibition is inactive: -2.89%.

With `COc1cc(C(=O)NCC2(N(C)C)CCCCC2)ccc1OC(F)F`, the inhibition was inactive: -3.7%.

As for `CCOC(=O)N1CCC(Nc2cccc(C)c2)CC1`, the inhibition is inactive: -4.83%.

As to `O=c1[nH]c2ccccc2n1C1CCN(C(c2cccc3ccccc23)c2nnnn2C2CCCC2)CC1` (stereo not given), the inhibition is inactive: -4.22%.

Consider `COc1ccc(C(=O)NCC2(N3CCCCC3)CCCCC2)cc1`, for which the inhibition was inactive: -3.22%.

`CCC(c1nnnn1C1CCCC1)N1CCC(n2c(=O)[nH]c3ccccc32)CC1` (stereo not given): the inhibition is inactive: -1.5%.

Consider `CC(C)(C)OC(=O)N1CCC(N(C(=O)c2ccccc2)c2ccc(F)cc2)CC1`, for which the inhibition was inactive: -2.49%.

In the case of `COc1ccc(C(=O)NCC2(N3CCCCC3)CCCCC2)c(OC)c1OC`, the inhibition is inactive: 1.59%.

`O=C(NCC1(N2CCCCC2)CCCCC1)c1ccc(=O)[nH]c1`: the inhibition is inactive: 1.41%.

Take `CCCCn1nnnc1C(c1cccs1)N1CCC(n2c(=O)[nH]c3ccccc32)CC1` (stereo not given): the inhibition was inactive: 10.2%.

With `O=C(NCC1(N2CCCCC2)CCCCC1)c1cccs1`, the inhibition is inactive: -1.81%.

With `CCCCn1nnnc1C(CC)N1CCC(n2c(=O)[nH]c3ccccc32)CC1` (stereo not given), the inhibition is inactive: 0.7%.

Consider `CSc1ccccc1C(=O)NCC1(N2CCCCC2)CCCCC1`, for which the inhibition is inactive: 2.27%.

Turning to `Cc1cccc(NC2(C#N)CCN(Cc3ccccc3)CC2)c1`, the inhibition was inactive: -4.25%.

Regarding `O=c1[nH]c2ccccc2n1C1CCN(C(c2ccccc2OC(F)(F)F)c2nnnn2C2CCCCC2)CC1` (stereo not given), the inhibition is inactive: 8.86%.

In the case of `O=C(NCC1(N2CCCCC2)CCCCC1)c1ccc(Cl)nc1`, the inhibition is inactive: -6.11%.

With `Cc1cc(C)cc(N(C(=O)c2ccccc2)C2CCN(C(=O)OC(C)(C)C)CC2)c1`, the inhibition was inactive: 1.03%.

With `O=C(NCC1(N2CCOCC2)CCCCC1)c1cc2ccccc2o1`, the inhibition was inactive: -5.4%.

Turning to `O=C(OC1CN2CCC1CC2)C1c2ccccc2Oc2ccccc21` (stereo not given), the inhibition is inactive: 11.6%.

For the molecule `O=c1[nH]c2ccccc2n1C1CCN(C(c2cc3ccccc3o2)c2nnnn2C2CCCCC2)CC1` (stereo not given), the inhibition is inactive: 3.72%.

Consider `N#CC1(Nc2ccccc2)CCN(Cc2ccccc2)CC1`, for which the inhibition is inactive: 3.48%.

For the molecule `O=C(NCC1(N2CCCCC2)CCCCC1)c1ccc(Cl)s1`, the inhibition was inactive: -4.82%.

In the case of `COc1ccc(Cl)cc1C(=O)NCC1(N2CCOCC2)CCCCC1`, the inhibition is inactive: -1.3%.

Regarding `CCOC(=O)N1CCC(Nc2ccc(OC)cc2)CC1`, the inhibition was inactive: -6.35%.

As to `CCCCn1nnnc1C(c1ccc(OC)cc1)N1CCC(n2c(=O)[nH]c3ccccc32)CC1` (stereo not given), the inhibition was inactive: -7.56%.
